Experiment [1] addresses T1, human His6–AspH315–758 (Homo sapiens, UniProt Q12797). The experiment can be described thus: AspH steady-state kinetics from initial hydroxylation rates (SPE-MS, Michaelis–Menten). Conditions: 20 μM FAS, 20 μM 2OG; for substrate concentration at which substrate inhibition was observed / kcat/Km / kcat: 100 μM LAA, pH 7.5, 20 °C; for Km / vmax / kcat/Km / kcat: peptide as varied substrate, mean ± S.D., n = 3; for Km / vmax: 0.1 μM His6–AspH315–758, 100 μM LAA, 50 mM HEPES pH 7.5, 20 °C, SPE-MS; for kcat: based on active enzyme 90.8 nM (2,4-PDCA titration). The format is biochemical. The method, then:
The reactions were monitored with a rate of 1 sample/25 s using the same SPE-MS configuration as described above. The data were analyzed as described above, and the slopes of the initial reaction rates (Fig. S6) were fitted to a Michaelis-Menten plot using nonlinear regression (GraphPad Prism 5). […] The reactions were monitored by SPE-MS with a rate of 1 sample/25 s using identical configurations as before. The data were analyzed as described, and the slopes of the initial reaction rates (Fig. […] The Morrison equation is as follows, where I is the inhibitor concentration, Ki is the dissociation constant of the inhibitor, ET is the total concentration of active enzyme, and vi/v0 is the fractional enzyme activity ([94]).

Sequences of proteins named here, by UniProt entry; tags and fusion partners are left off. Residues count along the entry.
UniProt Q12797, 315-758 limits assumed: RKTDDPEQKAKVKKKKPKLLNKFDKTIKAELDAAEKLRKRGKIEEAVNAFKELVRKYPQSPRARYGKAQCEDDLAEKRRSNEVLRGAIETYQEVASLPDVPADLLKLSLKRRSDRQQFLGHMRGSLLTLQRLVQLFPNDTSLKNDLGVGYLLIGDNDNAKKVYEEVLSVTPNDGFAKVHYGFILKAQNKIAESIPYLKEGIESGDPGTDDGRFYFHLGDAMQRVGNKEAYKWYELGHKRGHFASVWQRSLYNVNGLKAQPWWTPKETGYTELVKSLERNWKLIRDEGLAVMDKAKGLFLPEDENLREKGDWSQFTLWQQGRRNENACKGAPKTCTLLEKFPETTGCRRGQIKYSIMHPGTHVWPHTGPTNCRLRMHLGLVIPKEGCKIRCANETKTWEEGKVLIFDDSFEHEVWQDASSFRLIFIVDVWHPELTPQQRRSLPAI

Experiment [2] has as its target T1, human His6–AspH315–758. The experiment can be described thus: AspH activity assay: SPE-MS time course of peptide hydroxylation. The note with it: 0.1 μM His6–AspH315–758, 2.0 μM peptide, 100 μM LAA, 10 μM FAS, 10 μM 2OG, 50 mM HEPES pH 7.5, 20 °C; for time to complete hydroxylation: SPE-MS. The method, then: The substrate mixture (1.0 ml) containing 2.4 μM peptide, 120 μM LAA, 12 μM FAS, and 12 μM 2OG in 50 mM HEPES buffer (pH 7.5) was added into a well of a 2-ml volume 96-well assay plate (Greiner) at 20 °C under an ambient atmosphere. A blank sample was analyzed using a RapidFire RF 360 high-throughput sampling robot (Agilent) attached to an Agilent 6530 accurate mass quadrupole TOF mass spectrometer operated in the positive ionization mode. The enzyme mixture (0.2 ml), containing 0.6 μM His6–AspH315–758 in 50 mM HEPES buffer (pH 7.5), was then added to the well and thoroughly mixed. The RapidFire sampling robot was programmed to analyze 1 sample/min. The following SPE-MS conditions were used: assay samples were aspirated under vacuum for 0.4 s and loaded onto a C4 SPE cartridge. After loading, the C4 SPE cartridge was washed with 0.1% (v/v) aqueous formic acid to remove nonvolatile buffer salts (5 s, 1.5 ml/min). The peptide was then eluted from the SPE cartridge with 0.1% (v/v) aqueous formic acid in 85/15 (v/v) acetonitrile/water into the mass spectrometer (5 s, 1.25 ml/min). The SPE cartridge was re-equilibrated with 0.1% (v/v) aqueous formic acid (1 s, 1.25 ml/min). The mass spectrometer parameters were capillary voltage (3500 V), fragmentor voltage (150 V), gas temperature (350 °C), gas flow (12 liters/min). The m/z + 2 charge states of the substrate peptide and the product (hydroxylated) peptide were used to extract ion chromatogram data; peak areas were integrated using RapidFire Integrator software (Agilent). The data were exported into Microsoft Excel and used to calculate the percentage of conversion of the hydroxylation reaction using the equation: % conversion = 100 × (integral product peptide)/(integral substrate peptide + integral product peptide).

“And” between values parts separate entries of the source, which are not always exact repeats. Equal entries are not always repeated.

Take `CC(C)C[C@H](NC(=O)[C@H](CCC(=O)O)NC(=O)[C@H](Cc1ccc(O)cc1)NC(=O)CNC(=O)[C@@H]1CCCN1C(=O)[C@H](CCCNC(=N)N)NC(=O)[C@H](CO)NC(=O)[C@H](CO)NC(=O)[C@@H]1CSCC(=O)N[C@H](C)C(=O)N[C@@H](Cc2c[nH]cn2)C(=O)N[C@@H](CC(N)=O)C(=O)N[C@@H](Cc2ccc(O)cc2)C(=O)N[C@@H](C(C)C)C(=O)NCC(=O)NCC(=O)N[C@@H](Cc2ccc(O)cc2)C(=O)N[C@@H](Cc2ccccc2)C(=O)N1)C(=O)N[C@@H](CCC(N)=O)C(N)=O`: on human His6–AspH315–758 [1], the “substrate concentration at which substrate inhibition was observed” value was over 4 µM; the Michaelis constant (Km) (usually the substrate concentration at which the rate is half of its maximum) worked out at 3000 nM; the vmax is 0.041 ± 0.007 µM/s; the specificity constant (kcat/Km) (as a rule, the second-order rate constant that governs catalysis at low substrate concentration) came to 0.15 ± 0.05 µM⁻¹ s⁻¹. Further, the turnover number (kcat) (commonly the number of substrate molecules converted per active site and unit of time at saturation) on human His6–AspH315–758 [1] came out at 0.45 ± 0.10 s⁻¹. For the same compound, the “time to complete hydroxylation” value on human His6–AspH315–758 [2] is “less than 15 min”. At human His6–AspH315–758 [2] (% conversion by SPE-MS), the “Hydroxylation t = 15 min” value is listed as “∼90%”.
On to `CC[C@H](C)[C@@H]1NC(=O)CNC(=O)[C@H](CC(=O)O)NC(=O)[C@H]([C@@H](C)CC)NC(=O)[C@@H](C)NC(=O)CSC[C@@H](C(=O)N[C@@H](CC(=O)O)C(=O)N[C@@H](CO)C(=O)N[C@@H](CCCNC(=N)N)C(=O)N[C@@H](CO)C(=O)NCC(=O)N[C@@H](Cc2c[nH]c3ccccc23)C(=O)N[C@@H](CCC(=O)O)C(=O)NCC(=O)N[C@@H](CCCNC(=N)N)C(N)=O)NC(=O)[C@H](CO)NC(=O)[C@H](Cc2ccccc2)NC(=O)[C@H](CO)NC(=O)CNC1=O`, for which, at human His6–AspH315–758 [1], the Km is 1700 nM and 1710 nM; the vmax was 0.0156 ± 0.0006 µM/s; the kcat/Km came out at 0.10 ± 0.02 µM⁻¹ s⁻¹; the kcat is 0.17 s⁻¹ and 0.17 ± 0.03 s⁻¹. Besides, the “time to complete hydroxylation” value at human His6–AspH315–758 [2] is on record as “less than 15 min”. At human His6–AspH315–758 [2] (% conversion by SPE-MS), the “Hydroxylation t = 15 min” value is listed as over 95%.
Turning to `CC(C)C[C@H](NC(=O)[C@H](CO)NC(=O)[C@H](Cc1c[nH]cn1)NC(=O)CNC(=O)[C@H](CCC(=O)O)NC(=O)[C@H](Cc1c[nH]c2ccccc12)NC(=O)[C@H](CO)NC(=O)[C@H](CCC(N)=O)NC(=O)[C@@H]1CSCC(=O)N[C@H](C)C(=O)N[C@@H](C(C)C)C(=O)N[C@@H](CC(N)=O)C(=O)N[C@@H]([C@@H](C)O)C(=O)N[C@@H](C)C(=O)NCC(=O)N[C@@H](CO)C(=O)N[C@@H](Cc2ccc(O)cc2)C(=O)N[C@@H](Cc2c[nH]c3ccccc23)C(=O)N1)C(=O)N[C@@H](CO)C(N)=O`, at human His6–AspH315–758 [1], the “substrate concentration at which substrate inhibition was observed” value was over 4 µM, the Michaelis-Menten constant (Km) is 2040 nM, the vmax amounted to 0.0228 ± 0.0043 µM/s and the kcat/Km came to 0.12 ± 0.05 µM⁻¹ s⁻¹. Also, the kcat on human His6–AspH315–758 [1] was determined as 0.25 ± 0.06 s⁻¹. Also, at human His6–AspH315–758 [2], the “time to complete hydroxylation” value was “less than 15 min”. Also, the “Hydroxylation t = 15 min” value at human His6–AspH315–758 [2] (% conversion by SPE-MS) is on record as over 95%.
Turning to `CC[C@H](C)[C@@H]1NC(=O)[C@H](Cc2ccccc2)NC(=O)[C@H](CC(N)=O)NC(=O)[C@H](CC(N)=O)NC(=O)[C@@H](C)NC(=O)CSC[C@@H](C(=O)N[C@@H](CO)C(=O)N[C@@H](CO)C(=O)N2CCC[C@H]2C(=O)N2CCC[C@H]2C(=O)N[C@@H](CCC(=O)O)C(=O)N[C@@H](Cc2ccc(O)cc2)C(=O)N[C@@H](Cc2ccccc2)C(=O)N[C@@H](CC(C)C)C(=O)N[C@@H](Cc2c[nH]cn2)C(N)=O)NC(=O)[C@H](Cc2ccccc2)NC(=O)[C@H](Cc2ccc(O)cc2)NC(=O)CNC(=O)CNC1=O`, at human His6–AspH315–758 [1], the Km worked out at 36500 nM; the vmax was found to be 0.0109 ± 0.0006 µM/s; the catalytic efficiency (kcat/Km) stood at 0.0033 ± 0.0007 µM⁻¹ s⁻¹; the kcat was 0.12 s⁻¹ and 0.12 ± 0.02 s⁻¹. For the same compound, on human His6–AspH315–758 [2] (% conversion by SPE-MS), the “Hydroxylation t = 15 min” value is “∼20%” and the “Hydroxylation t = 200 min” value is “∼85%”.
